The chains behind the UniProt entries cited, without tags or fusion partners.
UniProt P35372, whole entry: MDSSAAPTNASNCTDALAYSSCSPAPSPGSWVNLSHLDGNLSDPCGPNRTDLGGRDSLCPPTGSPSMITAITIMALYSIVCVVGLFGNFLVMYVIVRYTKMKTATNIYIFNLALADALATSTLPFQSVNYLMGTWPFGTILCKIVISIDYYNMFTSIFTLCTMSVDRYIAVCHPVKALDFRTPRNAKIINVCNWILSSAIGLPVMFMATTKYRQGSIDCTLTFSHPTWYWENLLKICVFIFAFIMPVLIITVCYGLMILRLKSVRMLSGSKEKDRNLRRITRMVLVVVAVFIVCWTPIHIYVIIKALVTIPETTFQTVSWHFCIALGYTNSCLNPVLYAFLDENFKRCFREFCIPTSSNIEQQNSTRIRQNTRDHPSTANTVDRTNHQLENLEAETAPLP

According to PMC8541911 (Molecular cell, 2021):

Columns and labels:
Assay type in all cases: cell-based
[1] = target: T1, human μOR receptor fused to YFP (Homo sapiens, UniProt P35372)
[2] = target: T1, human μOR receptor fused to YFP; remark: listed apart in the source
[3] = target: SNAP-μOR receptor (Homo sapiens, UniProt P35372)

[D-Ala^2, N-Me-Phe^4, Gly^5-ol]-Enkephalin acetate salt [DAMGO]
comparable efficacies: Recruitment of β-arrestin-1/2 (response) [1] | Recruitment of GRK2/5 (response) [2] | μOR internalization (response) [3]
